Experimental data published in article PMC4186431 (Pharmacology Research & Perspectives, 2013).

Protein sequences, listed by entry. Tags and fused reporters are not part of them. Residues count along the entry.
UniProt P34969, 1-445 isoform P34969-2: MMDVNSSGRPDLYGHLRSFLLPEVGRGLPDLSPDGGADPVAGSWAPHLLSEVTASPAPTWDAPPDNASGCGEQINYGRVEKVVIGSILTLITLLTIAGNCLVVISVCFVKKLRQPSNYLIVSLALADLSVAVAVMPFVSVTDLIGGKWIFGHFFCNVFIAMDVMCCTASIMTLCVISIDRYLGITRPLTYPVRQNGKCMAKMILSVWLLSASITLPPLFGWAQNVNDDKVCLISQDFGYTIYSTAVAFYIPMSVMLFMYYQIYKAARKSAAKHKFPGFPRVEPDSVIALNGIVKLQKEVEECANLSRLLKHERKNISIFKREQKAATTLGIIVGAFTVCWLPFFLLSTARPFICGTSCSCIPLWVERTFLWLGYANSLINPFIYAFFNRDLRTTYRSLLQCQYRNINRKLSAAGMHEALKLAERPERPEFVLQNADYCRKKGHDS

Key:
human 5-HT7(a) receptor [1] = biological target: T1, human 5-HT7(a) receptor (Homo sapiens, UniProt P34969); test: cAMP assay, agonist effects in HEK-hu5-HT7 cells; assay type: cell-based; conditions: 100 nmol/L, data not shown
Method: (§1) cAMP levels were quantified using the homogeneous time-resolved fluorescence (HTRF)-based cAMP dynamic kit (Cisbio, Bioassays, Codolet, France). […] In all cases, basal cAMP levels were determined in control wells in the absence of agonist. The effects of the compounds on forskolin-stimulated adenylate cyclase activity were evaluated either at a single concentration (parental HEK293 cells) or by using concentration–response curves (HEK-hu5-HT7 cells). Cells were incubated in the absence (control) or presence of the compounds, at the concentrations indicated, in assay buffer for 15 min at 37°C prior to the addition of forskolin and further incubation for 15 min. Basal cAMP levels were determined in control wells in the absence of forskolin. After proceeding with the subsequent assay steps according to the manufacturer's protocol, the fluorescence emission intensity ratio at 665/620 nm wavelength was measured in an Ultra Evolution 384 microplate reader (TECAN, Männedorf, Switzerland).

human 5-HT7(a) receptor [2] = biological target: T1, human 5-HT7(a) receptor; test: 5-CT-stimulated cAMP assay in the presence of the compounds (antagonist curves, Schild analysis), HEK-hu5-HT7 cells; assay type: cell-based; conditions: 5 nmol/L 5-CT
Method: as §1, with “forskolin.” for “forskolin. After proceeding with the subsequent assay steps according to the manufacturer's protocol, the fluorescence emission intensity ratio at 665/620 nm wavelength was measured in an Ultra Evolution 384 microplate reader (TECAN, Männedorf, Switzerland).”
The data were analyzed using GraphPad Prism software v4.0 (GraphPad Software Inc., San Diego, CA). Receptor density (Bmax) and the dissociation constant (Kd) of the radioligand were determined by nonlinear regression curve fitting of saturation binding curves to a one-site binding (hyperbola) model. […] The IC50 values were determined by nonlinear regression curve fitting to sigmoidal dose–response or sigmoidal dose–response (variable slope) models, as indicated. […] Results are expressed as the mean values ± SEM from the number of independent experiments indicated.

NCCc1c[nH]c2ccc(C(N)=O)cc12 [5-CT, 5-carboxamidotryptamine, reference compound]
Increase of cAMP levels above basal levels (human 5-HT7(a) receptor [1]): more than 50 times above basal levels | cAMP response over basal as percent of the response elicited by 1 μmol/L 5-CT (human 5-HT7(a) receptor [2]): 44.3 ± 1.6%
